Data as given in PubChem BioAssay AID746 (The Scripps Research Institute Molecular Screening Center, 2007).
Only a part is listed here, and it is no random draw. Activity calls are given as the source filed them. Cut-off read from the data, not from the text of the source: active = inhibition above about 17%; inactive = the rest.

Protein sequences, listed by entry. Tags and fused reporters are not part of them.
UniProt P53779, whole entry: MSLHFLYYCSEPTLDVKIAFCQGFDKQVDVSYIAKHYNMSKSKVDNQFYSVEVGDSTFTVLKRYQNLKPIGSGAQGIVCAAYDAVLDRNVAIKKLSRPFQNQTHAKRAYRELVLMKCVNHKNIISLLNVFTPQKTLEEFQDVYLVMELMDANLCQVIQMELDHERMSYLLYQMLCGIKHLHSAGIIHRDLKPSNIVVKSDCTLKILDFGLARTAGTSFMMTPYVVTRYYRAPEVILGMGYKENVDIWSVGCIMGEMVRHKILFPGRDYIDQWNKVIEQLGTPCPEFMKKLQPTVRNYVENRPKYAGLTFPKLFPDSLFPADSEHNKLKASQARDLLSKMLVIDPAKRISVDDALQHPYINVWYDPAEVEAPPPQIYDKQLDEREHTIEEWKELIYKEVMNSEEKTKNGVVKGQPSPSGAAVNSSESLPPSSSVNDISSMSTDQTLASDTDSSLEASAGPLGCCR

molecular target: Mitogen-activated protein kinase 10 (Homo sapiens) (UniProt P53779); assay: inhibition of human JNK3 enzyme – biochemical, purified enzyme, primary screen (AID 746); settings: purified JNK3 kinase activity, HTS; at 8 µM; stronger effect = higher value;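 note: 0% = DMSO and 100% = reference inhibitor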

Row | Structure (SMILES) | inhibition
1 | CCC(CO)(C(=O)OC1CN2CCC1CC2)c1ccccc1 (configuration not stated) | inactive: 4.44%
2 | CCOc1ncccc1C(=O)NCC1(N2CCOCC2)CCCCC1 | inactive: 5.32%
3 | Fc1ccccc1NC1CCN(Cc2ccccc2)CC1 | inactive: -0.26%
4 | N/C(=N\O)c1c(N)no[n+]1[O-] | inactive: -0.04%
5 | N#CC1(Nc2ccccc2)CCN(CCc2ccccc2)CC1 | inactive: 0.54%
6 | COc1ccc(NC2CCN(CCc3ccccc3)CC2)c(OC)c1 | inactive: -7.26%
7 | O=C(OC1CN2CCC1CC2)C1c2ccccc2Oc2ccccc21 (configuration not stated) | inactive: 0.78%
